Assay results as given in US20080095824A1, “Delivery of drugs from sustained release devices implanted in myocardial tissue or in the pericardial space” (Durect Corporation, priority 2001, published 2008).

Assays:
[1] = Pericardial fluid and plasma concentrations after 7 days of pericardial or systemic infusion; details: 7 days intrapericardial infusion; calculated for each animal
[2] = In vitro release from SAIB depot compositions; assay type: physicochemical; details: SAIB 65% wt

Peric/plasma ratio [1] | Substance | period of VEGF release (extruded hollow tube made of caprolactone) [days] | release of VEGF over a 25-day period (hollow rod of 65:35 poly(dl-lactide-co-glycolide) with 5% PEG 1000) | % Release, 24 h ([2]; DMSO 30%, DL-PLG 5%) [%] | % Release, 168 h ([2]; DMSO 30%, DL-PLG 5%) [%] | % Release, 24 h ([2]; DMSO 35%, no additive) [%] | % Release, 168 h ([2]; DMSO 35%, no additive) [%]
420 ± 81 (3) | Cortisol carbonic acid |  |  |  |  |  | 
 | VEGF | 30 | about 50% | 5 | 40 | 15 | 70
